Laboratory results from ChEMBL document CHEMBL4368868, “Selected aryl thiosemicarbazones as a new class of multi-targeted monoamine oxidase inhibitors” (Medchemcomm, 2018).

The chains behind the UniProt entries cited, without tags or fusion partners.
UniProt P21397, whole entry: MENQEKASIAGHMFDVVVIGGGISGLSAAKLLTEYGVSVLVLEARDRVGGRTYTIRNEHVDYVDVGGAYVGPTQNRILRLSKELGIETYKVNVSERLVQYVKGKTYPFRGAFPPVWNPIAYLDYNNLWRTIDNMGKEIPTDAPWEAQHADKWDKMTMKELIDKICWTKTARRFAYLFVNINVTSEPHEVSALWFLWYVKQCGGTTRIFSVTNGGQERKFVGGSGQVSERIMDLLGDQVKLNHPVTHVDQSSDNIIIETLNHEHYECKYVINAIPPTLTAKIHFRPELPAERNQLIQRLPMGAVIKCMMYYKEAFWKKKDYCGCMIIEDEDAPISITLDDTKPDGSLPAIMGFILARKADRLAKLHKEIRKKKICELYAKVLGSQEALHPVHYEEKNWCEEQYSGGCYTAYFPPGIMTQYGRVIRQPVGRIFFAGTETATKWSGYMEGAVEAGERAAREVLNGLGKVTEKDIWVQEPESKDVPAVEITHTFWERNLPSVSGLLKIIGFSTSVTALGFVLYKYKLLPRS

Biological target: Amine oxidase [flavin-containing] A (Homo sapiens, UniProt P21397)

C#CCN(C)Cc1ccccc1 [PARGYLINE]
IC50: 1310 nM
